Bioassay records from PubChem BioAssay.
In the library only some 2.8% were active in any assay of this set; here they are far more common.
PglD DTNB: inhibitors of Campylobacter jejuni PglD acetyltransferase. inhibition, % at 12.5 µM. 360,000 tested, 0.098% active. purified PglD enzyme, DTNB colorimetric CoA detection; in the data active means inhibition above about 16%, passing the limit was not always enough; inconclusive means no clear call, values can overlap the other calls
Wnt bcat act: Wnt/beta-catenin pathway activation. AID 743398. activation, % at 9.35 µM. Wnt/beta-catenin reporter cell assay, activator, plate reader. 300,000 tested, 1.2% active; in the data active means activation above about 30%, passing the limit was not always enough; inconclusive means no clear call, values can overlap the other calls;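 further: 0% = neutral control wells and 100% = positive control wells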
esBAF inh: inhibitors of esBAF chromatin remodeling in mouse ES cells; Bmi1-luciferase knock-in reporter, 24 h; 100% = twice the neutral-well signal; reporter increase, % at 12.5 µM; 350,000 tested, 2% active; in the data active means activation above about 40%; inconclusive means no clear call, values can overlap the other calls;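 further: 0% = median of the plate's neutral control wells and 100% = double that signal; a rise in the Bmi1 reporter signal indicates esBAF inhibition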
Yeast UUG start: alters start codon recognition fidelity in yeast. S. cerevisiae UUG-firefly luciferase reporter, luminescence/redox ratio. AID 602363. activity score, % at 18.7 µM. hit rate 0.13% among 350,000;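 active = replicate mean at a twofold rise or more, about +100% in these data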;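 note: firefly luciferase made from a UUG start codon reports start codon fidelity; reporter light over untreated wells divided by growth signal over untreated wells; some hits fall short of that in this replicate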
miR122 inh: inhibitors of miR-122 in Huh7 cells; Huh7 miR-122 Renilla luciferase sensor, 48 h; neutral wells = 0, positive control = 100; activation (reporter increase), % at 12.5 µM; 340,000 tested, 0.3% active; AID 602342;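 active means mean replicate activation score at least 90 and every replicate individually at or above 90; inconclusive means only one of the two criteria met; inactive means neither criterion met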;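 further: higher luciferase means less miR-122 activity so hits act as miR-122 inhibitors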
MITF act: increases MITF-driven TRPM1 promoter luciferase signal; SK-MEL-5 TRPM1-promoter luciferase, 24 h; % of positive control, neutral wells = 0; 300,000 tested, 0.75% active; activation, % at 12.5 µM;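 active means mean activation of at least 80% with every replicate also reaching 80%; inconclusive means mean reaches 80% but some replicate falls short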;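 further: 0% = neutral control wells and 100% = parthenolide positive control wells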
Active calls of the source: *; ? = inconclusive; . = no result given; [ ] = dose if it differs, or a comment.

item	molecule	PglD DTNB	Wnt bcat act	esBAF inh	Yeast UUG start	miR122 inh	MITF act
1	CCSc1ccc(-c2nn(-c3ccccc3)cc2/C=C(/C#N)C(=O)NC)cc1	1.1	-13.6	.	-4.7	23.5	10.9
2	COC(=O)c1cnc(SCC(=O)c2ccccc2)n1C	0.1	32.5*	15.2	-32.8	4.0	33.3
3	COC(=O)c1cnc(SCc2ccc(Cl)cc2)n1C	.	-3.0	.	.	.	31.3
4	CC(C)C(NC(=O)OCc1ccccc1)C(=O)OCC(=O)N1CCCCC1 (stereo not drawn)	0.1	.	71.9*	-35.2	-1.3	.
5	COc1ccc(N2CCN(C(=O)COC(=O)[C@@H](NC(=O)OCc3ccccc3)C(C)C)CC2)cc1	0.4	-1.9	-6.0	-8.3	.	-6.7
6	C[C@@H]1CN([C@@H](C)CO)C(=O)Cc2cc(NC(=O)NC3CCCCC3)ccc2O[C@@H]1CN(C)C(=O)Nc1cccc2ccccc12	-2.0	.	2.7	-1.5	-1.1[16.7 µM]	.
7	N#CCCN1CCN(C(=S)c2ccc(-c3cccc(Cl)c3)o2)CC1	2.8	.	78.4*	-19.0	3.8	58.8
8	O=C(O)c1ccc(-c2cccc(Cl)c2)o1	2.2	.	-5.3	-10.5	-4.5	6.5
9	N#CCCN1CCN(C(=S)c2ccc(-c3ccc(Cl)c(Cl)c3)o2)CC1	-0.9	.	45.6*	-21.4	3.0	47.6
10	O=[N+]([O-])c1cc(-c2ccc(C(=S)N3CCOCC3)o2)ccc1Cl	.	2.0	13.9	.	-7.1	7.9
11	Cc1cccc(C(=O)Nc2sc3c(c2C#N)CCCCC3)c1	.	.	-0.9	.	-5.5	89.3*
12	CC(=O)Nc1sc2c(c1C#N)CCC(C)C2 (stereo not drawn)	5.7	0.1	17.8	-7.8	-0.6	14.5
13	Cc1cc(C(=O)Nc2sc3c(c2C#N)CCC(C)C3)cs1 (stereo not drawn)	-4.9	29.6	51.6*	-11.9	-5.2	67.8
14	N#Cc1c(NC(=O)c2ccccc2)sc2c1CCC2	6.4	.	.	-19.5	110.7*	43.5
15	O=C(CNc1ccc(Br)cc1)c1ccc(Br)s1	.	12.2	58.2*	.	24.2	77.3
16	C[C@H]1CN([C@@H](C)CO)S(=O)(=O)c2ccc(-c3cccnc3)cc2O[C@H]1CN(C)C	-3.2	.	-2.0	0.0	3.5[16.7 µM]	.
17	CN1CCN(C(=S)NC(=O)c2ccc(C(C)(C)C)cc2)CC1	-3.2	-2.1	.	-20.6	-7.7	10.6
18	CC(C)(C)c1ccc(C(=O)NC(=S)N2CCOCC2)cc1	4.9	34.3*	20.5	-31.4	-9.5	103.9*
19	CCOC(=O)Cn1c(-c2ccccn2)nc2ccccc21	.	.	2.1	-24.2	-3.9	-3.5
20	CCOC(=O)c1ccc2c(c1)nc(-c1ccccn1)n2CC	-2.2	26.0	72.6*	-33.8	0.4	64.2
21	CC(C)c1ccc(Nc2ncccc2C(=O)O)cc1	0.9	16.6	60.3*	8.1	-1.7	46.1
22	COc1ccc(/C=N/NC(=O)CN2CCCC2)cc1	-5.2	0.2	2.5	1.4	3.3	.
23	CC(C)(C)OC(=O)COc1ccc(/C=N/NC(=O)CN2CCCCC2)cc1	3.0	6.0	51.5*	-3.2	.	34.6
24	Cc1nn(-c2ccccc2)c(C)c1-c1cc(C(=O)N/N=C/c2cccnc2)[nH]n1	.	5.8	.	.	.	.
25	COC(=O)c1cc(-c2c(C)nn(-c3ccccc3)c2C)n[nH]1	2.1	.	64.4*	-11.4	8.3	29.3

Ordered by value in MITF act (largest number first): 3 of the compounds above.
No. | SMILES | PglD DTNB | Wnt bcat act | esBAF inh | Yeast UUG start | miR122 inh | MITF act
18 | CC(C)(C)c1ccc(C(=O)NC(=S)N2CCOCC2)cc1 | 4.9 | 34.3* | 20.5 | -31.4 | -9.5 | 103.9*
13 | Cc1cc(C(=O)Nc2sc3c(c2C#N)CCC(C)C3)cs1 (stereo not drawn) | -4.9 | 29.6 | 51.6* | -11.9 | -5.2 | 67.8
5 | COc1ccc(N2CCN(C(=O)COC(=O)[C@@H](NC(=O)OCc3ccccc3)C(C)C)CC2)cc1 | 0.4 | -1.9 | -6.0 | -8.3 | . | -6.7

Following part.
item	molecule	PglD DTNB	Wnt bcat act	esBAF inh	Yeast UUG start	miR122 inh	MITF act
26	CC(=O)c1ccccc1NC(=O)COC(=O)c1c(C)nn(-c2ccccc2)c1C	1.2	42.3*	33.1	-10.8	-3.9	29.4
27	Cc1cc(NC(=O)COC(=O)c2c(C)nn(-c3ccccc3)c2C)no1	.	1.1	.	.	.	-12.4
28	Cc1nc(COC(=O)c2c(C)nn(-c3ccccc3)c2C)cs1	-6.6	28.1	58.3*	-8.2	-5.6	86.2*
29	COc1ccccc1NC(=O)COC(=O)c1c(C)nn(-c2ccccc2)c1C	-3.5	-2.1	59.3*	-6.4	.	99.8*
30	Cc1nn(-c2ccccc2)c(C)c1C(=O)OCC(=O)Nc1ccc2c(c1)OCO2	4.8	.	5.3	-5.1	11.2	.
31	CO[C@@H]1CN(C)C(=O)c2cc(NC(=O)Nc3ccccc3)ccc2OC[C@H](C)N(CC2CC2)C[C@@H]1C	7.3	.	21.2	7.7	5.8[16.7 µM]	.
32	O=C(C[C@@H]1C=C[C@H](NC(=O)c2ccccc2)[C@H](CO)O1)NCc1ccc(Oc2ccccc2)cc1	3.0	.	5.3	.	-1.3[16.7 µM]	.
33	CN1C(=O)c2cc(NC(=O)C3CCCCC3)ccc2OC[C@@H]2O[C@H](CC(=O)NCc3ccccc3F)CC[C@@H]21	-2.1	.	5.0	.	20.0[16.7 µM]	.
34	O=C(C[C@@H]1CC[C@@H]2[C@H](COC[C@H](O)CN2S(=O)(=O)c2ccc(F)cc2)O1)NCc1ccncn1	1.3	.	-2.0	10.0	7.2[16.7 µM]	.
35	Cc1nn(-c2ccccc2)c(C)c1C(=O)OCC(=O)Nc1ccccc1C(F)(F)F	3.0	12.8	46.0*	-14.6	.	28.3
36	Cc1nn(-c2ccccc2)c(C)c1C(=O)OCC(=O)Nc1ccccc1	1.2	20.7	55.7*	-9.1	8.9	85.9*
37	Cc1ccc(NC(=O)COC(=O)c2c(C)nn(-c3ccccc3)c2C)cc1	-2.5	-0.6	-3.0	-15.5	3.6	2.3
38	Cc1nn(-c2ccccc2)c(C)c1NC(=O)COC(=O)c1ccccc1	2.0	2.5	-1.8	-23.0	-3.4	-3.8
39	Cc1cc(C(=O)Nc2cccc3c2O[C@H](CN(C)S(=O)(=O)c2cn(C)cn2)[C@H](C)CN([C@@H](C)CO)C3=O)n(C)n1	-1.7	.	-1.9	15.2	0.7[16.7 µM]	.
40	CCS(=O)(=O)Nc1ccc2c(c1)C(=O)N(C)C[C@@H](OC)[C@H](C)CN(C(=O)C1CC1)[C@@H](C)CO2	1.9	.	0.0	7.6	.	.
41	O=C(/C=C\N1CCOCC1)c1ccc(Br)cc1	5.2	10.3	46.6*	-6.8	-3.1	13.0
42	O=C(/C=C/N1CCOCC1)c1ccc(-c2ccccc2)cc1	-0.8	.	31.4	-13.7	-1.8	78.4
43	COC(=O)C[C@H]1C=C[C@@H](NC(=O)C2CC2)[C@@H](CO)O1	.	45.2*	.	.	.	.
44	O=C(C[C@@H]1C=C[C@@H](NC(=O)c2ccccc2)[C@H](CO)O1)Nc1ccc(-c2ccccc2)cc1	-4.8	.	15.5	2.3	.	.
45	CC(C)(C)c1ccc(-c2nnc(NC(=O)c3ccccc3)s2)cc1	1.1	.	49.3*	-19.6	-2.0	57.1
46	COc1cccc(C(=O)Nc2nnc(-c3ccccc3)s2)c1	-2.5	35.5*	18.0	-5.8	2.0	?
47	COCC(=O)Nc1nnc(-c2ccc(C(C)(C)C)cc2)s1	-27.3	0.9	-18.0	-5.5	-4.6	90.6*
48	C[C@@H]1CN([C@H](C)CO)C(=O)c2cc(NC(=O)C3CCCCC3)ccc2O[C@@H](C)CCCCO[C@H]1CN(C)C(=O)c1ccccc1	2.0	.	6.1	10.4	0.7[16.7 µM]	.
49	OCC1(CCOc2ccccc2)CCN(Cc2ccccc2C(F)(F)F)CC1	-55.9	40.6*	-3.5	-7.1	4.6	3.1
50	CCOc1ccccc1CN1CCC(CO)(CCOc2ccccc2)CC1	.	-2.6	.	.	.	4.7
51	Cn1c(-c2ccc(F)c(F)c2)cc2onc(-c3ccccc3)c2c1=O	1.9	64.5*	38.9	-18.9	-1.3	115.6*

Ordered by heavy-atom count (ascending): part of the list above
item	molecule	PglD DTNB	Wnt bcat act	esBAF inh	Yeast UUG start	miR122 inh	MITF act
17	CN1CCN(C(=S)NC(=O)c2ccc(C(C)(C)C)cc2)CC1	-3.2	-2.1	.	-20.6	-7.7	10.6
10	O=[N+]([O-])c1cc(-c2ccc(C(=S)N3CCOCC3)o2)ccc1Cl	.	2.0	13.9	.	-7.1	7.9
49	OCC1(CCOc2ccccc2)CCN(Cc2ccccc2C(F)(F)F)CC1	-55.9	40.6*	-3.5	-7.1	4.6	3.1
